Target: BRD4 protein (Homo sapiens, UniProt O60885)
Assay: FRET assay, half maximal inhibitory concentration (IC50)
Details: read-out: Classification (IC50 by FRET assay); BRD4 protein 50 nM, Biotin-H4KAc4 peptide 12.5 nM; List of Classification
Description: The compounds were biologically evaluated by determining the half maximal inhibitory concentration (IC50) by FRET assay. The IC50 is a measure of the effectiveness of a substance in inhibiting a specific biological or biochemical function.
For IC50 determinations, dose-response curves were generated, using a top concentration of 50 μM compound in 12.5% DMSO, followed by 10-fold dilutions in 12.5% DMSO. The composition of the reaction buffer was 50 mM HEPES, pH 7.5; 100 mM NaCl, 0.05% CHAPS.
The reaction was run in a final volume of 25 μl. The BRD4 protein (16.5 μl) was added to wells of 384w white Optiplates (Perkin Elmer) (50 nM final concentration) and 1 μl of compound dilution of DMSO control. Incubation time was 30 minutes at room temperature. In the next step, 2.5 μl Biotin-H4KAc4 peptide (Millipore 13-379) was added to the wells (final concentration was 12.5 nM), and the plates were incubated for 30 minutes at room temperature. […] The plates were incubated for one hour prior to reading on an Envision reader (Perkin Elmer)
Data was analyzed using GraphPad Prism, and IC50 data was obtained using non-linear regression curve fit using log(inhibitor) vs response (variable slope). […]

COc1cc(O)nc2ccc(NC(=O)c3cc(CN4CCN(C)CC4)ccc3N3CCCC3)cc12 [Compound-98, N-(2-hydroxy-4-methoxy-6-quinolyl)-5-[(4-methylpiperazin-1-yl)methyl]-2-pyrrolidin-1-yl-benzamide]
IC50: < 200 nM

Cc1cc(O)nc2ccc(NC(=O)c3cnccc3N3CCCC3)cc12 [Compound-124, N-(2-hydroxy-4-methyl-6-quinolyl)-4-pyrrolidin-1-yl-pyridine-3-carboxamide]
IC50: < 200 nM

Reference: patent US10752640B2, “Compounds active towards bromodomains” (NUEVOLUTION A/S, priority 2014, dated 2020)
